Values quoted from earlier work, collected in patent publication US20160271257A1, “Low Molecular Weight Immune-Modulators As Adjuvants for Specific Immunotherapy” (PLS-DESIGN GMBH, priority 2013, published 2016).

By UniProt entry, the sequences of proteins in these tests, tags left out. Residues count along the entry.
UniProt P12387, 23-1666: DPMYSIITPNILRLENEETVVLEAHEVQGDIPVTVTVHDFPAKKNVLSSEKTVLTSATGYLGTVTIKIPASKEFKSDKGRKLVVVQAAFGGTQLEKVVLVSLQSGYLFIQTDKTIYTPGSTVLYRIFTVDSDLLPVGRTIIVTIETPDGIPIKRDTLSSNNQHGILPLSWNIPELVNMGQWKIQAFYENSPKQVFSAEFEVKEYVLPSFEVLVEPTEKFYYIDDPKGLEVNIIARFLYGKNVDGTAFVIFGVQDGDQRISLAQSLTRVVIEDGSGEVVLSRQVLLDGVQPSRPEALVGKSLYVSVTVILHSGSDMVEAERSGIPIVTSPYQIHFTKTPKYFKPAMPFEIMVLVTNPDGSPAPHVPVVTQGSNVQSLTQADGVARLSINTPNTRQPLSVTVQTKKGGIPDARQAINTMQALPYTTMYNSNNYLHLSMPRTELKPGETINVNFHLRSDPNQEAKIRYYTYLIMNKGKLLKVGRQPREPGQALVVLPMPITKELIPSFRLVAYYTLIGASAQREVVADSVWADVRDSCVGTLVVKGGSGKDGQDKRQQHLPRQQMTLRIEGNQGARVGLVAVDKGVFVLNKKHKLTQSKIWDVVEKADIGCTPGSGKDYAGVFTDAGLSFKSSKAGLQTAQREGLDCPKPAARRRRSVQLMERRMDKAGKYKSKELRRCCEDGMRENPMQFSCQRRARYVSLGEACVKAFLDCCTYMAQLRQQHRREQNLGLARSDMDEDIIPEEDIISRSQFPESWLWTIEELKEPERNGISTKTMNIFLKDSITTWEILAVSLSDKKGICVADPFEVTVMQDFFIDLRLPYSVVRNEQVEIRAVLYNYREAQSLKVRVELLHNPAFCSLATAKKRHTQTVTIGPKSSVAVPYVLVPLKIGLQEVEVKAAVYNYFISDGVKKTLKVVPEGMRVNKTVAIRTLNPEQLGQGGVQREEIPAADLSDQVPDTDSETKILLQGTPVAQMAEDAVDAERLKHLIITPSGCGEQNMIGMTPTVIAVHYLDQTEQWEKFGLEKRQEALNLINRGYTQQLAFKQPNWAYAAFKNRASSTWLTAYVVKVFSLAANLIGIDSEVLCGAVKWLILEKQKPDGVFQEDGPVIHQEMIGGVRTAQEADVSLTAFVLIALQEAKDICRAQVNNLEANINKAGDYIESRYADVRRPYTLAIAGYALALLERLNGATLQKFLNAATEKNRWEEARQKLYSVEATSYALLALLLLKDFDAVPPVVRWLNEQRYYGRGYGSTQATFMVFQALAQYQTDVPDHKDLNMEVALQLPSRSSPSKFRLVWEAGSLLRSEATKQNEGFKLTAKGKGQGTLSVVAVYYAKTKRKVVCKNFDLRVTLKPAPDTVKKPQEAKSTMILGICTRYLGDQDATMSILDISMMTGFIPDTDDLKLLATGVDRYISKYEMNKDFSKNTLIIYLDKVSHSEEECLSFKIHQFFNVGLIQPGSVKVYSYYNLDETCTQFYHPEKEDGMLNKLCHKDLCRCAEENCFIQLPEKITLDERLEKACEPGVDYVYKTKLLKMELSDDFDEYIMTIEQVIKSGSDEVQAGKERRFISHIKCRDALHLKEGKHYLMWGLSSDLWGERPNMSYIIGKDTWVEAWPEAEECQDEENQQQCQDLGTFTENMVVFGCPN

Tests used:
[1] = molecular target: T1, C3 (Mus musculus, UniProt P01027); conditions: sera from mice; read-out: IC50 of haemolytic activity
T1 construct: from tissue; host or cells: mouse serum (value cited from Sahu et al., 2003)
T1 sequence (P01027 25-666 limits assumed): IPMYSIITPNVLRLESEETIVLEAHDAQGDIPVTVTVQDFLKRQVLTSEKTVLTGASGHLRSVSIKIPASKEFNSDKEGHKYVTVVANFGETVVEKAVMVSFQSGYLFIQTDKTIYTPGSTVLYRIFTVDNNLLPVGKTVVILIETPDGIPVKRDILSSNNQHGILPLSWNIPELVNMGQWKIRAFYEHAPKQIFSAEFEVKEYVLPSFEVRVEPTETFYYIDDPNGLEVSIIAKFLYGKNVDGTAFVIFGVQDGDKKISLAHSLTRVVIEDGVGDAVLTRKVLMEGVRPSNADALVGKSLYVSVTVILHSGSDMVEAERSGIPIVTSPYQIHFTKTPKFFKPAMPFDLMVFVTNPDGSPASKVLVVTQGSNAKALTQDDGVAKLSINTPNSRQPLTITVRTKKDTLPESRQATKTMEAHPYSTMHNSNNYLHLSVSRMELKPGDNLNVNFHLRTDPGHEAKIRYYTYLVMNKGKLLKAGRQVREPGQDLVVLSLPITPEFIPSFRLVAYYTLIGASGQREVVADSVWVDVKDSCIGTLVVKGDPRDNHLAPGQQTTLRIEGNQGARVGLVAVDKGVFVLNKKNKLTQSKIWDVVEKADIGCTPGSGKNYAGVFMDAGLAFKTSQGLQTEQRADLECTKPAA

[2] = molecular target: T2, C3 (Cavia porcellus, UniProt P12387); conditions: sera from guinea pigs; read-out: IC50 of haemolytic activity
T2 construct: from tissue; host or cells: guinea pig serum (value cited from Sahu et al., 2003)

**Q.** With `CC[C@H](C)[C@H](N)C(=O)N[C@H]1CSSC[C@@H](C(=O)N[C@H](C(N)=O)[C@@H](C)O)NC(=O)[C@H](CCCN=C(N)N)NC(=O)[C@H](Cc2cnc[nH]2)NC(=O)[C@H](Cc2cnc[nH]2)NC(=O)CNC(=O)[C@H](Cc2c[nH]c3ccccc23)NC(=O)[C@H](CC(=O)O)NC(=O)[C@H](CCC(N)=O)NC(=O)[C@H](C(C)C)NC(=O)[C@H](C(C)C)NC1=O` [compstatin] as the compound, how does the IC50 [1] read?
**A.** The IC50 was greater than 600 µM.

**Q.** And the IC50 [2]?
**A.** The IC50 was greater than 600 µM.
